Assay results from paper PMC9386376, “Discovery of spirooxindole-derived small-molecule compounds as novel HDAC/MDM2 dual inhibitors and investigation of their anticancer activity” (Frontiers in Oncology, 2022).

Columns and labels:
HDAC10 = target: T1, HDAC10 (Homo sapiens, UniProt Q969S8); assay: HDAC isoform selectivity, HDAC10; format: biochemical
T1 sequence (Q969S8 1-669): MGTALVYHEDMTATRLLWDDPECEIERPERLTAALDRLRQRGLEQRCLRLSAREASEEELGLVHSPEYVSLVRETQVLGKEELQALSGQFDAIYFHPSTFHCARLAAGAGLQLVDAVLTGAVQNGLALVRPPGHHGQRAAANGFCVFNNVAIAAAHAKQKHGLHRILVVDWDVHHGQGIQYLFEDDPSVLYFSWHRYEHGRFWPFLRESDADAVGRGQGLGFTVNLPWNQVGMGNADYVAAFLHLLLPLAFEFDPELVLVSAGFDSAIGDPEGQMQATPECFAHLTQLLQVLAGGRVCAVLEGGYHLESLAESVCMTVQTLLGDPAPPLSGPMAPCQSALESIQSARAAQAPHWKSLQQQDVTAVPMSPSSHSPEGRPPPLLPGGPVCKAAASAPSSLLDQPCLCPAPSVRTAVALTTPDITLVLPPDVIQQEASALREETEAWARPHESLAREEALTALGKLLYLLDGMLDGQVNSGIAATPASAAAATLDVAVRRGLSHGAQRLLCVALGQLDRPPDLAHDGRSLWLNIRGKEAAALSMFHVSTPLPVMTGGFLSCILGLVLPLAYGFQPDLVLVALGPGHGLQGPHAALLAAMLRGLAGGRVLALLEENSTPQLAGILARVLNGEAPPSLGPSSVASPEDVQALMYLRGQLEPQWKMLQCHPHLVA

HDAC8 = target: T2, HDAC8 (Homo sapiens, UniProt Q9BY41); assay: HDAC isoform selectivity, HDAC8; format: biochemical
T2 sequence (Q9BY41 1-377): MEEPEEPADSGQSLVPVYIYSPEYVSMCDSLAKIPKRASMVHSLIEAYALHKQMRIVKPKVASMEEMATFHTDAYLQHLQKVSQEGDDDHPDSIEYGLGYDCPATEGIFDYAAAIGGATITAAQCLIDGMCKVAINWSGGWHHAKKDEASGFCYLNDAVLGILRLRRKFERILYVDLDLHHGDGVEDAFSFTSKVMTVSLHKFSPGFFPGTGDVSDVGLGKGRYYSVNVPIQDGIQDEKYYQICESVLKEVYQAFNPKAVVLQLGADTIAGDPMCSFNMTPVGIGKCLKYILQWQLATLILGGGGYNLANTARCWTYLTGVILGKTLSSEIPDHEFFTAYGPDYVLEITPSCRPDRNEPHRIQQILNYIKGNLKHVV

Compound: O=C(CCCCCCC(=O)Nc1ccccc1)NO [SAHA, vorinostat, reference compound]
- IC50 (HDAC10): 379 ± 22 nM
- IC50 (HDAC8): 183 ± 27 nM
